Test results taken from publication PMC6450568 (Bioorganic & medicinal chemistry letters, 2019).
Read-outs that look alike come from different tables or passages of the source.

Sequences of proteins named here, by UniProt entry; tags and fusion partners are left off. Residues count along the entry.
UniProt P0A6F5, 2-548: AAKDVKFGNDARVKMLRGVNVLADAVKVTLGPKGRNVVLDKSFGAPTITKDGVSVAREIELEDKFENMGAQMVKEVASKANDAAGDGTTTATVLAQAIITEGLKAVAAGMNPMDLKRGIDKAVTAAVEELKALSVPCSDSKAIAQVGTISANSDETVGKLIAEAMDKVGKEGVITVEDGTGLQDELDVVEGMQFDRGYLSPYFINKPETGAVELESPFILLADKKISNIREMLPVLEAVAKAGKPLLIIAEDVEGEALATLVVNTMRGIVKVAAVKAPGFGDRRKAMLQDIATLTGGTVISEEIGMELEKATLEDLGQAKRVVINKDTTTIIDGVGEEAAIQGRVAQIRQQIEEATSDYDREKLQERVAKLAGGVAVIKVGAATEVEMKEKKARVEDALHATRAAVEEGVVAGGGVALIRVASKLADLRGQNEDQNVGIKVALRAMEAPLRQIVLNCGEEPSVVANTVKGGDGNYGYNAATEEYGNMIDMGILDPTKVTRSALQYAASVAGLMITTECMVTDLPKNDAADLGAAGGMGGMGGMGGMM
UniProt P10809, 27-573: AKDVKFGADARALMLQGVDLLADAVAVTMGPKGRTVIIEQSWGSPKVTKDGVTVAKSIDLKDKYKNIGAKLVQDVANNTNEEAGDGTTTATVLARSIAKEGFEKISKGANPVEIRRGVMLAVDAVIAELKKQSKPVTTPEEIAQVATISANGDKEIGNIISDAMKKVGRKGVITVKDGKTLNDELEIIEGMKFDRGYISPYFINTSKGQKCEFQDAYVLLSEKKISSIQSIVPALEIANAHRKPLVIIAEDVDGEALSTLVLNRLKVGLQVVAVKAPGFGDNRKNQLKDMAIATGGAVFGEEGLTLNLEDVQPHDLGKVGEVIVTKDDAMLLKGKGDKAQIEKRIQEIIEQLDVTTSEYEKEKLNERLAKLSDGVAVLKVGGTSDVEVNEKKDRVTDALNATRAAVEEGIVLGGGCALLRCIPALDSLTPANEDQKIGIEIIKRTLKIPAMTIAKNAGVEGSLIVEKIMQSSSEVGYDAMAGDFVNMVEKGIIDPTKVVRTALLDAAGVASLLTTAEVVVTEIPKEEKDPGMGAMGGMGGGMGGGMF

Tests used:
[1] = target: T1, E. coli GroEL/ES chaperonin system (Escherichia coli, UniProt P0A6F5); conditions: read-out: Biochemical Assay IC50, GroEL/ES-mediated refolding of dMDH
[2] = target: human HSP60/10 chaperonin system (Homo sapiens, UniProt P10809); assay: HSP60/10-dMDH refolding assay; conditions: read-out: Biochemical Assay IC50, HSP60/10-dMDH Refolding
[3] = target: T1, E. coli GroEL/ES chaperonin system; conditions: read-out: Biochemical Assay IC50, GroEL/ES-mediated refolding of dRho
[4] = target: GroEL ATPase (Escherichia coli, UniProt P0A6F5); conditions: read-out: Biochemical Assay IC50, GroEL ATPase

In the case of “Chlorophyllin sodium copper salt [Compound 19]”, the IC50 [1] is reported as 2.3 µM, the IC50 [2] is reported as 4.4 µM and the IC50 [3] is reported as 1.2 µM. For the same substance, the IC50 [4] was > 250 µM.

Work on “Cyanocobalamin (vtamin B12) [Compound 36]” yielded an IC50 [1] of 16 µM, an IC50 [2] of 12 µM and an IC50 [3] of 0.12 µM. The IC50 [4] was > 250 µM.
